Laboratory results taken from publication PMC8348983 (International Journal of Molecular Sciences, 2021).

Chains of the proteins cited; added tags and fusions are not shown. Residues count along the entry.
UniProt P22303, 32-614: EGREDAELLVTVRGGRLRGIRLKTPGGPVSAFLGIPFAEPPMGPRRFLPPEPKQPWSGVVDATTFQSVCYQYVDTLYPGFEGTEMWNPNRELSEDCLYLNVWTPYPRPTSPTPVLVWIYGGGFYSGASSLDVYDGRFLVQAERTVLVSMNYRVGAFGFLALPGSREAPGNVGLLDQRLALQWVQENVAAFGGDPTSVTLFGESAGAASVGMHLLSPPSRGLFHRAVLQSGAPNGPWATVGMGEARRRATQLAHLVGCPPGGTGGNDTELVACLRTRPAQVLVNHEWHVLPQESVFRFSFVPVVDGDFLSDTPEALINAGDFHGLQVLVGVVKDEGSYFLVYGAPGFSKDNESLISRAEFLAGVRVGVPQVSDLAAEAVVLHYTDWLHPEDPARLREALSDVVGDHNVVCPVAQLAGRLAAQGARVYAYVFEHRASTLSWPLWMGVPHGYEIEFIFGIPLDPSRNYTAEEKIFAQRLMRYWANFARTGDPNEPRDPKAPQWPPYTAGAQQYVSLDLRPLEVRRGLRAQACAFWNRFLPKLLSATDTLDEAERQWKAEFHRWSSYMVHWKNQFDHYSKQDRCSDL
UniProt P06276, 29-602: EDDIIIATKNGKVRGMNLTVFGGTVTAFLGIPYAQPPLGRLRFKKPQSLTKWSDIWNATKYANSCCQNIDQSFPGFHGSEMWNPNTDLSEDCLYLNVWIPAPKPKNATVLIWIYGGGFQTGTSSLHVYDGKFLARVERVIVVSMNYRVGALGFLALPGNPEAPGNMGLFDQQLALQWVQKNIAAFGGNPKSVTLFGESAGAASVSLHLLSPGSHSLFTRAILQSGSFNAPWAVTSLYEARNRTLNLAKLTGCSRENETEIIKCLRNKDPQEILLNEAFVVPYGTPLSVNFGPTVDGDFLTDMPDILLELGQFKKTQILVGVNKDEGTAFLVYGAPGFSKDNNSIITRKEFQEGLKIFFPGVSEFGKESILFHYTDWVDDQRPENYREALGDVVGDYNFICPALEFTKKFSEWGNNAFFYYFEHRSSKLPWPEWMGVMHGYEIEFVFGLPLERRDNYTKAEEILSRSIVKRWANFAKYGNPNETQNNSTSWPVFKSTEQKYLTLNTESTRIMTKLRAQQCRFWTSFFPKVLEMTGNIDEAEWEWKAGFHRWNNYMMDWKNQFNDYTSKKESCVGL

Experiments:
[1] = biological target: human recombinant AChE (Homo sapiens, UniProt P22303); type: biochemical; details: 100 µM
[2] = biological target: T1, human plasma BChE (Homo sapiens, UniProt P06276); type: biochemical; details: 100 µM
T1 construct: was used as a source of BChE and was prepared from heparinized human blood; from tissue; host or cells: human plasma from heparinized human blood

CNC(=O)Oc1ccc2c(c1)[C@]1(C)CCN(C)[C@@H]1N2C [eserine, reference compound]
%Inhibition hAChE ± SEM [1]: 99.8 ± 0.6%
% Inhibition hBuChE ± SEM [2]: 99.9 ± 0.5%
